Molecular target: human thrombopoietin receptor (c-mpl) (Homo sapiens, UniProt P40238)
Assay: Stimulation of proliferation of thrombopoietin-dependent cell line UT7/EPO-mpl (WST-8)
Conditions: human leukemic cell line UT-7/EPO-mpl, 4 days incubation, WST-8, absorbance at 450 nm
Experimental: The responses of thrombopoietin receptor to the compounds of the present invention prepared in the Synthetic Examples were assayed using a human leukemic cell line, UT7/EPO-mpl.
UT7/EPO-mpl is a stable transformed cell line obtained by introducing into human leukemic cell line UT7/EPO a vector that induces expression of human thrombopoietin receptor (c-mpl) under control of cytomegalovirus immediate-early promoter by the method of Takatoku et al. (J. Biol. Chem., 272:7259-7263 (1997)). […] These two cell lines were subcultured in IMDM (GIBCO) containing 10% fetal bovine serum (Thermo Electron or BioWest) using a CO2 incubator (5% CO2, 37° C.).
The subcultured cells described above were washed twice with PBS and suspended in IMDM containing 10% fetal bovine serum at a cell density of 6×10^4 cells/ml. The cell suspension was transferred to a 96-well tissue culture plate (CORNING) in 100-μl aliquots. Then either thrombopoietin (Pepro Tech EC) or the compounds of the Synthetic Examples dissolved in dimethyl sulfoxide were diluted 83-fold with IMDM containing 10% fetal bovine serum and added to the aforementioned cell suspension in 20-μl aliquots. The cell suspension was incubated in a CO2 incubator (5% CO2, 37° C.) for 4 days. Cell proliferation was assayed using WST-8 reagent (Kishida Chemical Co., Ltd.) according to instructions by the manufacturer. A 10-μl aliquot of 5 mM WST-8 reagent solution was added to each well of the tissue culture plate, and the plate was incubated at 37° C. for 4 hours. The formazan pigment generated was detected by measuring the absorbance at 450 nm with a 96-well microplate reader (Nihon Molecular Devices, Spectramax 190).
The concentration of each compound that yields a growth rate corresponding to 50% of the growth of human leukemic cell line UT-7/EPO-mpl observed in the presence of 10 ng/mL TPO (EC50) in the test on the compounds of the Synthetic Examples in Assay Example 1 are shown in Table 8.

By UniProt entry, the sequences of proteins in these tests, tags left out. Residues count along the entry.
UniProt P40238, 26-635 limits assumed: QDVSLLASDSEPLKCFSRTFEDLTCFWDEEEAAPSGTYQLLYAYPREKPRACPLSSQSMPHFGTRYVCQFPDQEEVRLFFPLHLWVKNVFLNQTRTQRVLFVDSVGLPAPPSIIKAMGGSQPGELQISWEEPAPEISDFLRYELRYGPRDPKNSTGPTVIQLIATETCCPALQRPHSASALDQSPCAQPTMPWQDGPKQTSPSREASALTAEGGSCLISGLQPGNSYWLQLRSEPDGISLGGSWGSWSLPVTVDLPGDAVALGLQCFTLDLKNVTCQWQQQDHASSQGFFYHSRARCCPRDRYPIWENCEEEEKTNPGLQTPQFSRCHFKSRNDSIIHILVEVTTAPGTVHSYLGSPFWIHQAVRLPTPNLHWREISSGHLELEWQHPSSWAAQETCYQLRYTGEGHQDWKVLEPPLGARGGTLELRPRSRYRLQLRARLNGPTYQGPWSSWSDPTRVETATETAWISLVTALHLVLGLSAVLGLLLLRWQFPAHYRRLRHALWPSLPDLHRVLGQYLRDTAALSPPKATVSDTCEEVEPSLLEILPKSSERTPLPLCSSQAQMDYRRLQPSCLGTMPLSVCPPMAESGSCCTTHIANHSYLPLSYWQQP

SMILES	EC50 (concentration that yields a growth rate corresponding to 50% of the growth observed in the presence of 10 ng/mL TPO) [ng/mL]
CC1=NN(c2ccc(C(F)(F)F)cc2)C(=O)C1=C(C)NNC(=S)N1CCC(C(=O)O)CC1	2.9
CC1=NN(c2ccc(Br)cc2)C(=O)C1=C(C)NNC(=S)N1CCC(C(=O)O)CC1	3.1
COC(=O)C1CCN(C(=S)NNC(C)=C2C(=O)N(c3ccc(C)c(C)c3)N=C2C)CC1	31
CC1=NN(c2ccc(Cl)c(Cl)c2)C(=O)C1=C(C)NNC(=S)N1CCC(C(=O)O)CC1	3.0
CC1=NN(c2ccc(C)c(C)c2)C(=O)C1=C(C)NNC(=S)N1CCC(C(=O)O)CC1	2.8

The remaining lines, values ahead:

EC50 (concentration that yields a growth rate corresponding to 50% of the growth observed in the presence of 10 ng/mL TPO) [ng/mL]	SMILES
2.8	CC1=NN(c2ccc(C(C)(C)C)cc2)C(=O)C1=C(C)NNC(=S)N1CCC(C(=O)O)CC1
3.4	CC1=NN(c2ccc(C(C)(C)C)cc2)C(=O)C1=C(C)NNC(=S)N1CCN(CC(=O)O)CC1
2.1	CC1=NN(c2ccc(C(C)(C)C)cc2)C(=O)C1=C(C)NNC(=S)N1CCN(C(=O)C(=O)O)CC1

Source: US8093251B2, “Nitrogen-containing heterocyclic compounds and thrombopoietin receptor activators” (Nissan Chemical Industries, Ltd., priority 2006, dated 2012)
